The values below are quoted from earlier work in publication PMC3569036.

pKd: −log10 of the molar value. A value given as a limit tells only on which side of the number the result lay.

What is called pKd is −log10 of the Kd, conventionally taken in molar units.

For the data set, the target named is eNOS (Bos taurus) (UniProt P29473).

Take Calmodulin (from UniProt P0DP23): the negative logarithm of the Kd (pKd) is > 9.00.
